Holding throughout (settings): tags: His-CRP expressed from pBAD-CRP, Ni-NTA and anion exchange; chain copies: 2; label: 5'-32P
Series [1] addresses T1, CRP (catabolite activator protein, cAMP receptor protein) (Escherichia coli, UniProt P0ACJ8 P0ACJ8:2-210).
T1 sequence: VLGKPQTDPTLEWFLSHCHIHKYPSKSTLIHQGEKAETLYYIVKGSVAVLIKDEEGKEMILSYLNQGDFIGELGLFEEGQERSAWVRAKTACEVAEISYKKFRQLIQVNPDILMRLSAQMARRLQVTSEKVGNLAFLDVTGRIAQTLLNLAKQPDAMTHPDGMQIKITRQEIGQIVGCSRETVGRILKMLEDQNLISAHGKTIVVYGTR
The experiment in a line: DRaCALA; no cAMP.

For series [2], the target named is T1, CRP (catabolite activator protein, cAMP …). The experiment in a line: DRaCALA; 200 nM cAMP.
Series [3] has the same target. The experiment in a line: DRaCALA; 200 uM cAMP; 10 mM Tris pH 7.9, 200 mM NaCl, room temp.

B1: ICAP oligo duplex (gd126/gd127) (dsDNA)
DNA 1: AGGAGGAATAAATGTGATCTAGATCACATTTTAGAGGAGG
DNA 2: CCTCCTCTAAAATGTGATCTAGATCACATTTATTCCTCCT
For orientation: Kd means the concentration at which binding is half-saturated. The low end stands for higher affinity, the high end for lower affinity. As for B1, the Kd in series [1] amounted to 8400 nM; in series [2], 56 nM; in series [3] it was 0.56 nM.

Values taken from US20130337579, “Methods for Determining Protein Ligand Binding” (UNIVERSITY OF MARYLAND, COLLEGE PARK, published 2013).
